Earlier results, collected in patent US20220023244A1, “FORMULATION FOR TOPICAL TREATMENT OF ACUTE WOUNDS” (priority 2020, published 2022).

SMILES: CC[C@H](C)[C@H](NC(=O)CN)C(=O)NCC(=O)N[C@@H](C)C(=O)N[C@H](C(=O)N[C@@H](CC(C)C)C(=O)N[C@@H](CCCCN)C(=O)N[C@H](C(=O)N[C@@H](CC(C)C)C(=O)N[C@H](C(=O)N[C@H](C(=O)NCC(=O)N[C@@H](CC(C)C)C(=O)N1CCC[C@H]1C(=O)N[C@@H](C)C(=O)N[C@@H](CC(C)C)C(=O)N[C@H](C(=O)N[C@@H](CO)C(=O)N[C@@H](Cc1c[nH]c2ccccc12)C(=O)N[C@H](C(=O)N[C@@H](CCCCN)C(=O)N[C@@H](CCCNC(=N)N)C(=O)N[C@@H](CCCCN)C(=O)N[C@@H](CCCNC(=N)N)C(=O)N[C@@H](CCC(N)=O)C(=O)N[C@@H](CCC(N)=O)C(N)=O)[C@@H](C)CC)[C@@H](C)CC)[C@@H](C)O)[C@@H](C)O)C(C)C)C(C)C [melittin]
- aqueous solubility: high
